# Experimental data from PubChem BioAssay AID489030 (Sanford-Burnham Center for Chemical Genomics, 2010).
# Chains of the proteins cited; added tags and fusions are not shown.
# UniProt O14727, whole entry: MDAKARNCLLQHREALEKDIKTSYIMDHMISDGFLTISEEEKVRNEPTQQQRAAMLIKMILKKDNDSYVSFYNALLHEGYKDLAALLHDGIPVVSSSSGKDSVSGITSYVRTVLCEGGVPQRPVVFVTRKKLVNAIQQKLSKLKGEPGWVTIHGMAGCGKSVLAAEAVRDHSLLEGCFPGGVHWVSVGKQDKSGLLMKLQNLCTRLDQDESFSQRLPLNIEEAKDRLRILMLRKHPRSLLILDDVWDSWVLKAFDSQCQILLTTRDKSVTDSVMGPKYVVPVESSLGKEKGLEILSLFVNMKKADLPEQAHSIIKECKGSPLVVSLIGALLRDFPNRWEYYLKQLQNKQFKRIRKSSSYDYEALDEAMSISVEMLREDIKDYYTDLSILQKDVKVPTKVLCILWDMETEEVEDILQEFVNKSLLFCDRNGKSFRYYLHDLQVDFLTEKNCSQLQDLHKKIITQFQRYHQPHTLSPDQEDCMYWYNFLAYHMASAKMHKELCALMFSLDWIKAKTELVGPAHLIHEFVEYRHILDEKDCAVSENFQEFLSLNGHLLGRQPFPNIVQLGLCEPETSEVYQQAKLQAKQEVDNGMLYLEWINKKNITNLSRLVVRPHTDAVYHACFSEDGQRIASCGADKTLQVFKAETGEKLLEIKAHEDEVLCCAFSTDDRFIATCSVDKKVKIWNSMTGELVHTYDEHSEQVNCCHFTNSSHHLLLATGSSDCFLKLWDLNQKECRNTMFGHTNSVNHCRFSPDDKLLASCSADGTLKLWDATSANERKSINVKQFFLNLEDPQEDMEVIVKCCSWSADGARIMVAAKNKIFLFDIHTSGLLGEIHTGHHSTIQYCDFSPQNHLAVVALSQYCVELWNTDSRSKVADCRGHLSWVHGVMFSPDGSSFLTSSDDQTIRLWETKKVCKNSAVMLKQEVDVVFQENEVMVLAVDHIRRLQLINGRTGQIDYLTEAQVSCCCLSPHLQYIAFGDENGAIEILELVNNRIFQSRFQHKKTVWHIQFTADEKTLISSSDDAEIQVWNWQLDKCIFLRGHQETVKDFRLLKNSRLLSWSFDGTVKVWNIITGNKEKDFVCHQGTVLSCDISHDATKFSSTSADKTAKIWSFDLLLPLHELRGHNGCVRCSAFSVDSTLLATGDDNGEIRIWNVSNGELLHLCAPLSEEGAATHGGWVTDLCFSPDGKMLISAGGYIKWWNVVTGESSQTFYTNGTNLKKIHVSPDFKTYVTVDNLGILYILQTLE
# Only a part is listed here, and it is no random draw. Calls of active or inactive are those of the source. The calls were made as follows: active = inhibition of at least 40% at 20 µM; inactive = the rest.
# Molecular target: Apoptotic protease-activating factor 1 (Homo sapiens) (UniProt O14727)
# Experiment: blockers of Apaf-1-driven caspase-3 activation – biochemical, DEVD-Rh110 fluorescence, uHTS, primary screen (AID 489030);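 also: plate controls were DMSO wells for no effect and DEVD-CHO caspase inhibitor wells for full effect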
# Conditions: reconstituted apoptosome caspase-3 activity, at 20 µM, active compounds read high
row,Compound,inhibition
1,CCC(=O)N(c1ccccc1)C1(COC)CCN(CCn2nnn(CC)c2=O)CC1,inactive: 3.16%
2,CCC(=O)N(c1ccccc1)C1(COC)CCN(CCc2cccs2)CC1,inactive: 11.6%
